PubChem BioAssay AID1645858 (Buhrlage Lab, Dana-Farber Cancer Institute and Novartis …, 2021)
This is a selection; strong and weak results do not stand in their true shares. Calls of active or inactive are those of the source. No stated cut-off is given here; in the data, active means inhibition above about 30%; inactive means the rest.

Sequences of proteins named here, by UniProt entry; tags and fusion partners are left off.
UniProt Q5T2D3, whole entry, looked up: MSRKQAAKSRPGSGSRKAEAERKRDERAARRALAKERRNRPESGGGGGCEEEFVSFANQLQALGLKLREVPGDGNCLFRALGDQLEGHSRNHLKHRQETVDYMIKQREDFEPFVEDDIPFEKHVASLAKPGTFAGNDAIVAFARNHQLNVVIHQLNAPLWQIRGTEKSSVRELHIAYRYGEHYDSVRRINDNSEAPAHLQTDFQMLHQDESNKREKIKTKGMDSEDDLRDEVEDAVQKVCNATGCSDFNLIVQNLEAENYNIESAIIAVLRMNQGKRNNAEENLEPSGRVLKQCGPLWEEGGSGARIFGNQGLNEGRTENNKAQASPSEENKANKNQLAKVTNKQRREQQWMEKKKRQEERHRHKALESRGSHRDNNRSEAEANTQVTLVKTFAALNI

Each molecule was assayed against OTU domain-containing protein 3 (Homo sapiens) (UniProt Q5T2D3) (assay: blocks human OTUD3 ubiquitin-rhodamine cleavage (AID 1645858)). Details: purified OTUD3, Ub-rhodamine fluorescence, 2 h; at 25 µM; hits give high values.

| Structure (SMILES) | inhibition |
| --- | --- |
| Cc1[nH]c2c(N(C(=O)Nc3ccccc3)C3CCN(Cc4ccccc4)CC3)cccc2c1C | inactive: -5.85% |
| N#Cc1cccc(C(=O)N(Cc2ccco2)C2CCN(CCc3ccc(Cl)cc3)CC2)c1 | inactive: -21.7% |
| O=C(c1ccc2c(c1)OCO2)N(Cc1ccco1)C1CCN(CCc2ccccn2)CC1 | inactive: -17.4% |
| O=C(COC(=O)C(O)(c1ccccc1)c1ccccc1)NCc1ccc2c(c1)OCO2 | inactive: -10.4% |
| COc1ccc(CCN2CCC(N(Cc3cccnc3)C(=O)c3cccc(C#N)c3)CC2)cc1 | inactive: -18.4% |
| CS(=O)(=O)c1ccc(C(=O)N(Cc2ccco2)C2CCN(CCc3ccccn3)CC2)cc1 | inactive: -18.6% |
| N#Cc1cccc(C(=O)N(Cc2cccnc2)C2CCN(CCc3ccccn3)CC2)c1 | inactive: -16.2% |
| COc1ccc(CCN2CCC(N(Cc3ccco3)C(=O)c3ccc(S(C)(=O)=O)cc3)CC2)cc1 | inactive: -23.6% |
| CN1C(=O)C2C(NC(=NCc3ccco3)N2CCc2ccccc2)N(C)C1=O (stereo unspecified) | inactive: -9.45% |
| N#Cc1cccc(C(=O)N(Cc2ccco2)C2CCN(CCc3ccccn3)CC2)c1 | inactive: 11.5% |
| CS(=O)(=O)c1ccc(C(=O)N(Cc2cccnc2)C2CCN(CCc3ccc(Cl)cc3)CC2)cc1 | inactive: -53.6% |
